Results published in patent EP3397273B1.
Values joined by “and” are separate entries in the source; they are usually repeats but may differ in a detail not shown here. Identical values can stand only once.

Tests used:
[1] = molecular target: cation-independent mannose-6-phosphate receptor (CIMPR); test: CIMPR affinity chromatography, elution with free M6P gradient, GAA activity
[2] = molecular target: cation-independent mannose-6-phosphate receptor (CIMPR); test: CIMPR affinity chromatography, fractions assayed for GAA activity
[3] = molecular target: cation-independent mannose-6-phosphate receptor (CIMPR); test: cell-based or functional assay
[4] = molecular target: cation-independent mannose-6-phosphate receptor (CIMPR); test: CIMPR affinity chromatography, different production batches
[5] = molecular target: cation-independent mannose-6-phosphate receptor (CIMPR); test: M6P receptor (CIMPR) plate binding assay
[6] = molecular target: cation-independent mannose-6-phosphate receptor (CIMPR); test: CIMPR binding (method not given)

percent of rhGAA bound to CIMPR column (eluted with M6P) [1]	percent of rhGAA not bound to CIMPR column [2]	concentration saturating cellular receptors, fibroblast internalisation [3]	uptake efficiency constant (Kuptake), fibroblast internalisation [3]	percent CIMPR receptor binding [4]	Kd [5]	Kd [6]	Substance
22%	78%	250 nM	56 nM	–	–	–	Lumizyme® (alglucosidase alfa, conventional rhGAA) (from UniProt P10253 57-952) (enzyme)
27%	73%	–	–	–	–	–	Myozyme® (alglucosidase alfa, conventional rhGAA) (from UniProt P10253 57-952) (enzyme)
–	–	20 nM	–	70%	2 to 4 nM	2.7 nM and 2.9 nM	ATB200 rhGAA (recombinant human acid α-glucosidase produced in CHO cell line GA-ATB-200) (from UniProt P10253 57-952) (enzyme)
